Data: US20190307754A1, “PDE9 INHIBITORS FOR TREATMENT OF PERIPHERAL DISEASES” (IMARA, INC., priority 2016, published 2019)

Conditions: male CD mice, 10 mg/kg subcutaneous

C[C@@H]1CN(Cc2ncccn2)C[C@H]1c1nc2c(cnn2C2CCOCC2)c(=O)[nH]1 (single isomer, unassigned) [AF27873, reference compound]
Plasma concentration after 30 minutes (30 min): 1230 ng/mL | Plasma concentration after 120 minutes (120 min): 529 ng/mL
